Results reported in ChEMBL document CHEMBL1133563, “Development of new hydroxamate matrix metalloproteinase inhibitors derived from functionalized 4-aminoprolines” (J Med Chem, 2000).

Experiments:
Collagenase 3 = Collagenase 3 (Homo sapiens, UniProt P45452); test: In vitro inhibitory activity against human recombinant matrix metalloprotease-13 (collagenase-3)
Interstitial collagenase = molecular target: T1, Interstitial collagenase (Homo sapiens, UniProt P03956); test: In vitro inhibitory activity against matrix metalloprotease -1 (collagenase-1)
T1 sequence (P03956 whole entry): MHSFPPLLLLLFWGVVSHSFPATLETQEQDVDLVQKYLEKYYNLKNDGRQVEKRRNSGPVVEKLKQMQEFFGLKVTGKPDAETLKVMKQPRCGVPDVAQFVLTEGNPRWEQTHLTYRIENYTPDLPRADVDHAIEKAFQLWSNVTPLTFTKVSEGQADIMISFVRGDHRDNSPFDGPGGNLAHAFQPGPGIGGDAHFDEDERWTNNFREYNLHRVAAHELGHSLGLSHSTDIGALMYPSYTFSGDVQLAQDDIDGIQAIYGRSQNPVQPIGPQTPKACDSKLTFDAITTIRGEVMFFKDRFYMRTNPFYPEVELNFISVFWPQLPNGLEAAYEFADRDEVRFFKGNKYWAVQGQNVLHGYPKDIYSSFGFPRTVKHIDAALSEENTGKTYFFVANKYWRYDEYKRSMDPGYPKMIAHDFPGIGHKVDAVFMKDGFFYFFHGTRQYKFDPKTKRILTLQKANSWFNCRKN

Structure (SMILES): COc1ccc(S(=O)(=O)N2C[C@@H](NCCc3ccccc3)C[C@@H]2C(=O)NO)cc1
- IC50 (Collagenase 3): 1 nM

Structure (SMILES): CCCCOc1ccc(S(=O)(=O)N2C[C@@H](N3C(=O)CN(C)C3=O)C[C@@H]2C(=O)NO)cc1
- IC50 (Interstitial collagenase): 920 nM
